{"sequences": {"note": "Protein sequences, listed by entry. Tags and fused reporters are not part of them. Residues count along the entry.", "UniProt Q3UP87, 27-265": "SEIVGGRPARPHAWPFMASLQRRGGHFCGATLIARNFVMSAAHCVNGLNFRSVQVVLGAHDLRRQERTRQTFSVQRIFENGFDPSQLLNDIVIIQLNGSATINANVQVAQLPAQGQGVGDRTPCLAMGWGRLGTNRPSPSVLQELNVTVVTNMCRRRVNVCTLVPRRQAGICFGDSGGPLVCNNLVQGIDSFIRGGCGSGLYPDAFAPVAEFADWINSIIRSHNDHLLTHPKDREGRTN"}, "source": "patent US20210113563A1", "about": "“4-(4-CYANO-2-THIOARYL)DIHYDROPYRIMIDINONES FOR TREATING CHRONIC WOUNDS” (pH Pharma Co., Ltd., priority 2015, published 2021)", "molecular_target": "Neutrophil Elastase (NE) (Mus musculus, UniProt Q3UP87)", "conditions": "db/db mouse, day 8", "note": "Read-outs that look alike come from different tables or passages of the source."}
{"smiles": "CC1=C(C#N)[C@@H](c2ccc(C#N)cc2S(C)(=O)=O)N(C)C(=O)N1c1cccc(C(F)(F)F)c1", "note": "[Example 5, (4 S)-4-[4-Cyano-2-(methylsulfonyl)phenyl]-3,6-dimethyl-2-oxo-1-[3-(trifluoromethyl)phenyl]-1,2,3,4-tetrahydropyrimidine-5-carbonitrile]", "values": [{"measurement": "NE activity in wound tissue", "setting": "0.03 mg/kg BW o.d. p.o.", "result": 7850, "unit": "ng/mL equivalent"}, {"measurement": "NE activity in wound tissue", "setting": "0.1 mg/kg BW o.d. p.o.", "result": 8237, "unit": "ng/mL equivalent"}, {"measurement": "NE activity in wound tissue", "setting": "3.0 mg/kg BW o.d. p.o.", "result": 4159, "unit": "ng/mL equivalent"}, {"measurement": "NE activity in wound tissue", "setting": "10.0 mg/kg BW o.d. p.o.", "result": 2177, "unit": "ng/mL equivalent"}]}
